Results on 1 molecule are retold here after US9364465B2, “Thiazolidinediones of omega-3 polyunsaturated acids as new insulin sensitizers for treating type2 diabetes” (Jiva Pharma, Inc., priority 2013, dated 2016).

By UniProt entry, the sequences of proteins in these tests, tags left out. Residues count along the entry.
UniProt P37231, 238-503 limits assumed, species assumed: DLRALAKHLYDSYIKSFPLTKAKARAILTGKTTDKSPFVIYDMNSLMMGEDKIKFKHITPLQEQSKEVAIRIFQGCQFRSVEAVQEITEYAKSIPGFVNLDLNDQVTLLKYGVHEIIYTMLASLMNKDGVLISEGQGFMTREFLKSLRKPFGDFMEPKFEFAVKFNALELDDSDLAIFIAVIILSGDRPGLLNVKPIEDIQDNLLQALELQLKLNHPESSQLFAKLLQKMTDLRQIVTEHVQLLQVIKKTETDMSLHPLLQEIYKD

This assay concerns the target T1, PPARγ (Homo sapiens, UniProt P37231).
T1 construct: expressed in transfected cells
Description: cell-based chimeric receptor transcription assay (PPAR ligand binding domain fused to GAL4 DNA binding domain, GAL4-regulated luciferase reporter). To be noted: for average luciferase values from transcription assay: * above background. The protocol:
To determine if these compounds can activate PPARγ or the members of the PPAR family of nuclear receptors (PPARα and PPARδ), the ability of these compounds to activate PPAR receptors in a cell-based chimeric receptor transcription assay were tested. This is a standard nuclear receptor ligand activity assay that utilizes the ligand binding domain of the PPAR receptor fused to a heterologous GAL4 DNA binding domain. The transcriptional read-out is from a GAL4-regulated luciferase reporter. In this assay, compounds that activate the receptor cause an increase in luciferase activity measured in a luminometer. The data are shown in Table 1 below (average luciferase values from transcription assay).
(Reporter assays use an easily measured gene product as a stand-in for the process of interest.)

For `CN(CCOc1ccc(CC2SC(=O)NC2=O)cc1)c1ccccn1` (racemic) [Rosiglitazone, (RS)-5-[4-(2-[methyl(pyridine-2-yl)amino]ethoxy)benzyl]thiazolidine-2,4-dione, reference compound], the “average luciferase values from transcription assay” value reads like this: (0.01 μM conc.) 482*; (0.03 μM conc.) 1205*; (0.08 μM conc.) 2301*; (0.20 μM conc.) 3459*; (0.51 μM conc.) 3828*; (1.3 μM conc.) 3729*. Besides, the “average luciferase values from transcription assay” value by setting is: (3.2 μM conc.) 3941*; (8 μM conc.) 4621*; (20 μM conc.) 5575*. The molecule further had an RE (RE Conc. 20 μM) of 5475.
